Chains of the proteins cited; added tags and fusions are not shown. Lines headed by an entry give the natural chain unless they say otherwise; changes in a name come on top.
UniProt P31751: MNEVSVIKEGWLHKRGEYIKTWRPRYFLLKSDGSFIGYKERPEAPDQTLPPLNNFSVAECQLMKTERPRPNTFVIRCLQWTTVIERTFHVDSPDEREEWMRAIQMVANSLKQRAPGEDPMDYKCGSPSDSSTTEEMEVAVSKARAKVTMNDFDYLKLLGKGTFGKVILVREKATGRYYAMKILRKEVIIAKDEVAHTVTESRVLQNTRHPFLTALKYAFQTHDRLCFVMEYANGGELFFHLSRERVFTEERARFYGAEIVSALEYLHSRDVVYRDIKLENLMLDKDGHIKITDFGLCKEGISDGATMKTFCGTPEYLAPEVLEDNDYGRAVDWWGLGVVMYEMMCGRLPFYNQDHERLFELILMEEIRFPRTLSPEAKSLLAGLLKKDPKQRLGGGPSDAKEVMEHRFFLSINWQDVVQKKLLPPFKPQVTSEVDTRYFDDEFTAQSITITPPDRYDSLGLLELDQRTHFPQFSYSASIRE

In patent publication US9604989B2, “Imidazopyridazines as Akt kinase inhibitors” (Bayer Intellectual Property GmbH, priority 2011, dated 2017):

Legend:
[1] = system: KPL-4 breast cancer cell line; experiment: Tumor cell proliferation assay (CellTiter-Glo), KPL-4; format: cell-based; details: Homo sapiens, KPL4, 72 h drug exposure, read-out: KLP-4 median IC50
[2] = system: MCF-7 breast tumour cell line; experiment: Tumor cell proliferation assay (CellTiter-Glo), MCF-7; format: cell-based; details: Homo sapiens, MCF7, 72 h drug exposure, read-out: MCF-7 median IC50
[3] = target: His-tagged human recombinant kinase full-length Akt2 (Homo sapiens (Human), UniProt P31751); experiment: Akt2 kinase assay (Akt2 TR-FRET assay); format: biochemical; details: 10 μM ATP, 60 min at 22° C., read-out: Akt2 median IC50
p-4E-BP1 at T70 = experiment: Cellular p-4E-BP1-T70 assay in KPL-4 cells; format: cell-based; details: Homo sapiens, KPL4; KPL-4 breast tumour cell line, compound treatment 2 hours; read-out: P4EBP1-T70 median IC50

IC50 [1]: 170 nM
IC50 [2]: 63 nM
SMILES: NC(=O)c1ccc2nc(-c3ccc(C4(N)CCC4)cc3)c(-c3ccccc3)n2n1 [Example 5, 2-[4-(1-Aminocyclobutyl)phenyl]-3-phenylimidazo[1,2-b]pyridazine-6-carboxamide]

IC50 [3]: 3300 nM
SMILES: NC1(c2ccc(-c3nc4c(O)ccnn4c3-c3ccccc3)cc2)CCC1 [Example 32, 2-[4-(1-Aminocyclobutyl)phenyl]-3-phenylimidazo[1,2-b]pyridazin-8-ol]

IC50 [2]: 1900 nM
SMILES: NC1(c2ccc(-c3nc4c(-c5ccc(F)cc5)ccnn4c3-c3ccccc3)cc2)CCC1 [Example 44, 1-{4-[8-(4-Fluorophenyl)-3-phenylimidazo[1,2-b]pyridazin-2-yl]phenyl}cyclobutanamine]

IC50 (p-4E-BP1 at T70): 1200 nM
SMILES: COc1cc(-c2ccnn2C)c2nc(-c3ccc(C4(N)CCC4)cc3)c(-c3ccccc3)n2n1 [Example 74, 1-{4-[6-Methoxy-8-(1-methyl-1H-pyrazol-5-yl)-3-phenylimidazo[1,2-b]pyridazin-2-yl]phenyl}cyclobutanamine]

One block for each compound: values may come before it.
